Here are results for 1 compound from US20250057859A1, “CANNABICHROMENEQUINONE AND ANALOGUES THEREOF, AND METHOD OF USING COMPOSITIONS THEREOF AS ANTI-INFLAMMATORY AGENTS” (Juva Life, Inc., priority 2021, published 2025).

Protein sequences, listed by entry. Tags and fused reporters are not part of them.
UniProt P34972, whole entry: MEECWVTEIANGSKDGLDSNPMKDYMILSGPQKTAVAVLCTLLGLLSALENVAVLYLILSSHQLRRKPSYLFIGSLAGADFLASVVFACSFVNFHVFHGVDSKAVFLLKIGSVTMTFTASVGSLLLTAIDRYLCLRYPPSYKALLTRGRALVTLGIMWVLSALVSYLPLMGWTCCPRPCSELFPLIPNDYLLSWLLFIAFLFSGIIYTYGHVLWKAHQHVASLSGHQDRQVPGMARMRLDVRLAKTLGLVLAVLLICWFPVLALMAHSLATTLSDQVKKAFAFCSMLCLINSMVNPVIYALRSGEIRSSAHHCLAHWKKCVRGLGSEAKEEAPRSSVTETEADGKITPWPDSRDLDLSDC

“Also recorded” adds a separate entry of the source.

Data set [1] deals with SK-MEL-28 melanoma cell line. The data set can be described thus: SK-MEL-28 cell line toxicity (Cell titer Glo viability). It counts as cell-based. The procedure:
(§1) Culture medium were purchased from ATCC, USA.
(§2) 90 nL DMSO is added to control wells. […] Luminescence was then recorded using Synergy Neo2Multi-mode Reader.
On the technique in general: ATP-based viability assays read luminescence as a measure of living cells.

Data set [2] has as its system PC3 prostate adenocarcinoma cell line. Briefly: PC3 cell line toxicity (Cell titer Glo viability). It counts as cell-based. As to the method: as §2, §1
In data set [3] the test system is HL-60 acute promyelocytic leukemia cell line. As to the method: The half maximal inhibition concentration (IC50) for each compound was determined by harvesting cells during the logarithmic growth period and then counting cell number using hemocytometer. […] Then, using a Biomek FX, test articles were serially diluted (10 mM top, 3× dilution intervals) along with a reference inhibitor (1 mM top, 3× dilution intervals) in acoustic grade Labcyte plate. Then, using an acoustic dispenser (Labcyte550), compounds were added as serially diluted to plate with cells: 90 nL of serially diluted compounds per well. 90 nL DMSO is added to control wells. Test plates were incubated for 72 h in the humidified incubator at 37° C. with 5% CO2. 25 μL of reconstituted Cell titer Glo reagent was added to each well. Each test plate was then incubated for 20 min at room temperature. Luminescence was then recorded using Synergy Neo2Multi-mode Reader.
(§3) In order to calculate intersect IC50, a dose-response curve was fitted using nonlinear regression model with a sigmoidal dose response.
The formula for calculating surviving rate is shown below, and the intersect IC50 was calculated according to the dose-response curve generated by the software:
The compounds of interest were assessed cell viability in the HL-60 acute promyelocytic leukemia cell line (ATCC® CCL-240). […] Culture medium were purchased from ATCC, USA.

Data set [4] has as its system PANC-1 pancreatic carcinoma cell line. Briefly: PANC-1 cell line toxicity (Cell titer Glo viability). The procedure:
The half maximal inhibition concentration (IC50) for each compound was determined by harvesting cells during the logarithmic growth period and then counting cell number using hemocytometer. The cell concentrations were adjusted to 5×10^4 cells/mL with respective culture medium. 30 μL of cell suspensions were added to three 384-well plates with the final cell density of 1.5×10^3 cells/well. Then, using a Biomek FX, test articles were serially diluted (10 mM top, 3× dilution intervals) along with a reference inhibitor (1 mM top, 3× dilution intervals) in acoustic grade Labcyte plate. Then, using an acoustic dispenser (Labcyte550), compounds were added as serially diluted to plate with cells: 90 nL of serially diluted compounds per well. 90 nL DMSO is added to control wells. Test plates were incubated for 72 h in the humidified incubator at 37° C. with 5% CO2. 25 μL of reconstituted Cell titer Glo reagent was added to each well. Each test plate was then incubated for 20 min at room temperature. Luminescence was then recorded using Synergy Neo2Multi-mode Reader.
as §3
The formula for calculating surviving rate is shown below, and the intersect IC50 was calculated according to the dose-response curve generated by the software: […]

The target of data set [5] is T1, cannabinoid receptor 2 (CNR2) (Homo sapiens, UniProt P34972).
T1 construct: host or cells: CHO-K1
Briefly: CB2 receptor agonist assay (cAMP Hunter eXpress, CNR2 CHO-K1). It counts as cell-based. The procedure:
The assays were performed in cAMP Hunter eXpress cells engineered to overexpress naturally Gi/Go-coupled wildtype cannabinoid receptor 1 (CNR1) or cannabinoid receptor 2 (CNR2) in CHO-K1 cell type. In these cells, CB1 and/or CB2 agonists inhibit production of intracellular cAMP in response to stimulation with Forskolin. cAMP levels are determined using luminogenic detection reagents provided with the Hunter eXpress cAMP detection kit.
• Assay ready CNR1 CHO-K1 cells were obtained from Eurofins/Discover X, cat #95-0071E2 • Assay ready CNR2 CHO-K1 cells were obtained from Eurofins/Discover X, cat #95-0183E2 • Hunter eXpress cAMP detection kit was also from Discover X. The kit includes all cAMP detection reagents, Forskolin, complete cell plating medium and cell assay buffer.
The Assay-Ready CNR1 CHO-K1 or CNR2 CHO-K1 cells were thawed and re-suspended in pre-warmed Assay Complete plating medium and inoculated into 96well plate at a density of 30,000 cells in 100 μL. The plates with cells were incubated for 24 h at 37° C. in 5% CO2. […] The cells were stimulated with the Forskolin/compound buffer for 30 min. […] The plate was read on Biotek Synergy Neo2 reader in luminescent mode. […] Relative luminescence units (RLUs) were plotted against compound concentration to determine apparent EC50 values of the agonist compounds.

With `CCCCCC1=CC(=O)C2=C(OC(C)(CCC=C(C)C)C=C2)C1=O` (stereo not drawn) [Formula II], the “fold higher tolerance than staurosporine” value is reported as “more than 250 fold” in data set [1], “more than 10,000 fold” in data set [2], “more than 200 fold” in data set [3] and “more than 750 fold” in data set [4]. Moreover, in data set [5] (agonist), the “selectivity for CB2 receptor activation over CB1, in words” value was “good selectivity; also recorded: high potency and selectivity”. For the same compound, the “Selectivity for CB2 over CB1” value in data set [5] (ratio of EC50 values) was more than 80 fold.
